The entries are a selection whose mix differs from that of the whole data set. Activity calls are given as the source filed them. Cut-off read from the data, not from the text of the source: active = inhibition above about 16% (passing the limit was not always enough); inactive = the rest.
target: Neuropeptides B/W receptor type 1 (Homo sapiens) (UniProt P48145); test: GPR7 receptor antagonists, primary screen, cell-based, fluorescence, single concentration (AID 1861); details: GPR7-expressing cells, fluorescence antagonist assay; at 4.4 µM; hits give high values;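 note: cells stimulated with the agonist NPW; 0% = agonist with vehicle and 100% = vehicle without agonist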

Amino acid sequences for entries named in this document (tags omitted).
UniProt P48145, whole entry: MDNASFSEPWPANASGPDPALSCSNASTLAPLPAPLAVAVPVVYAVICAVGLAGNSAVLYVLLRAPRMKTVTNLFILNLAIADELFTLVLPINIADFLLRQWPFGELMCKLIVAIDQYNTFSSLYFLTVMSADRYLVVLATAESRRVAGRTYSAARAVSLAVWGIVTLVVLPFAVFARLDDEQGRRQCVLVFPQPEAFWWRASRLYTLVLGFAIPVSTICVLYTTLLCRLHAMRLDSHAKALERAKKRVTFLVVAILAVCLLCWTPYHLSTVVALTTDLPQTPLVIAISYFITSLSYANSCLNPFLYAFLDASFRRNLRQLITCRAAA

SMILES | inhibition
CP(=O)(Oc1ccccc1)OC(c1ccccc1)C(F)(F)F (centres undefined) | inactive: -20.4%
CP(=O)(Nc1ccc(SC(F)(F)F)cc1)Oc1ccc(Cl)cc1 (centres undefined) | inactive: -3.19%
Cc1cccc(C)c1OP(C)(=O)Nc1ccc(SC(F)(F)F)cc1 (centres undefined) | inactive: -1.51%
Cc1cc(C)cc(OP(C)(=O)Nc2ccc(SC(F)(F)F)cc2)c1 (centres undefined) | inactive: -2.7%
CCc1ccc(OP(C)(=O)N2CCN(c3ccc([N+](=O)[O-])cc3)CC2)cc1 (centres undefined) | inactive: -0.78%
CP(=O)(NC(=O)Nc1ccccc1)Oc1ccccc1 (centres undefined) | inactive: -13.3%
CCOP(C)(=S)SCC(=O)NC(C)C(=O)O (centres undefined) | inactive: 7.68%
CCOC(=O)c1ccc(NP(C)(=O)Oc2ccc(OC)cc2)cc1 (centres undefined) | inactive: -0.89%
CP(=O)(Nc1ccccn1)Oc1ccc(Cl)cc1 (centres undefined) | inactive: -7.5%
CP(=S)(Nn1cnnc1)Oc1ccccc1 (centres undefined) | inactive: -11.6%
COc1ccccc1OP(C)(=O)Nc1ccccc1 (centres undefined) | inactive: -9.13%
CP(=O)(Nc1ccccc1Br)Oc1ccccc1 (centres undefined) | inactive: -2.36%
Cc1cccc(C)c1OP(C)(N)=O (centres undefined) | inactive: -3.89%
CC(C)(C)c1ccc(OP(C)(=O)Nc2ccc(SC(F)(F)F)cc2)cc1 (centres undefined) | inactive: -4.13%
O=[N+]([O-])c1ccc2c(c1)C=Nc1ccccc1O2 | inactive: -12.4%
CCOC(=O)c1ccc(NP(C)(=O)Oc2ccccc2)cc1 (centres undefined) | inactive: -13.1%
Cc1ccc(NP(C)(=O)Oc2ccccc2)c(C)c1 (centres undefined) | inactive: -5.4%
COc1ccccc1OP(C)(=O)Nc1ccc(C)cc1 (centres undefined) | inactive: -5.63%
COc1ccc(OP(C)(=O)Nc2cccc(F)c2)cc1 (centres undefined) | inactive: 6.87%
COc1ccccc1OP(C)(=O)Nc1cc(Cl)ccc1C (centres undefined) | inactive: 9.75%
Cc1cc(C)cc(OP(C)(N)=O)c1 (centres undefined) | inactive: -1.83%

SMILES | inhibition
CCN(CC)CCCOC(=O)C(O)(c1ccccc1)c1ccccc1 | inactive: 3.3%
COc1ccccc1OP(C)(=O)Nc1cccc(Br)c1 (centres undefined) | inactive: -4.71%
Cc1cc(C)cc(OP(C)(=O)Nc2ccc(C)cc2C)c1 (centres undefined) | inactive: -0.6%
CCOC(=O)c1ccc(NP(C)(=O)Oc2cc(C)cc(C)c2)cc1 (centres undefined) | inactive: -0.3%
CP(=O)(Nc1cccc(Br)c1)Oc1ccccc1 (centres undefined) | inactive: 3.49%
Cc1cc(C)cc(OP(C)(=O)Nc2ccccn2)c1 (centres undefined) | inactive: 6.34%
Cc1ccc(C)c(NP(C)(=O)Oc2ccccc2)c1 (centres undefined) | inactive: -0.13%
O=C(O)c1cccc(Nc2c([N+](=O)[O-])cc([N+](=O)[O-])cc2[N+](=O)[O-])c1 | active: 22.9%
CC1=NCCc2c1[nH]c1ccccc21.O=[N+]([O-])c1cc([N+](=O)[O-])c(O)c([N+](=O)[O-])c1 | inactive: -3.42%
CCOC(=O)C(CC)C1=NC(C)(C)Cc2ccccc21.O=[N+]([O-])c1cc([N+](=O)[O-])c(O)c([N+](=O)[O-])c1 (centres undefined) | inactive: -19.9%
O=[N+]([O-])c1cc([N+](=O)[O-])c(Nc2nnnn2CCO)c([N+](=O)[O-])c1 | inactive: -10.2%
CN1CCCCC1COC(=O)C1(O)c2ccccc2CCc2ccccc21 (centres undefined) | inactive: -0.06%
COc1ccccc1OP(C)(=O)Nc1c(C)cccc1C (centres undefined) | inactive: 2.47%
CP(=O)(Nc1ccc(SC(F)(F)F)cc1)Oc1ccccc1 (centres undefined) | inactive: 0.72%
CCCOc1ccc(NP(C)(=O)Oc2ccc(Cl)cc2)cc1 (centres undefined) | active: 25.5%
O=[N+]([O-])c1cc([N+](=O)[O-])c(-n2nnc3ccccc32)c([N+](=O)[O-])c1 | inactive: -10.8%
Cc1nc2ccc3ccccc3c2s1.O=[N+]([O-])c1cc([N+](=O)[O-])c(O)c([N+](=O)[O-])c1 | inactive: 2.98%
CP(=O)(Nc1ccc(SC(F)(F)F)cc1)Oc1ccc(F)cc1 (centres undefined) | inactive: -3.5%
CCOP(C)(=S)SCC(=O)NC(C)(CC)C(=O)O (centres undefined) | inactive: -19.8%
CP(=O)(Nc1ccc2c(c1)OCCO2)Oc1ccccc1 (centres undefined) | inactive: 0.69%
Cc1ccccc1NP(C)(=O)Nc1ccccc1C | inactive: -10.5%

SMILES | inhibition
COc1ccc(OP(C)(=O)Nc2cccc(Br)c2)cc1 (centres undefined) | inactive: -6.86%
COc1ccc(NP(C)(=O)Oc2ccccc2OC)cc1 (centres undefined) | inactive: -9.97%
CN(C)CCOC(=O)C(O)(c1ccccc1)C1CCCCC1 (centres undefined) | inactive: 10.5%
O=[N+]([O-])c1cc([N+](=O)[O-])c(NCC2CCS(=O)(=O)C2)c([N+](=O)[O-])c1 (centres undefined) | inactive: -8.17%
Cc1cc(-c2cccc3ccccc23)c(C)cn1.O=[N+]([O-])c1cc([N+](=O)[O-])c(O)c([N+](=O)[O-])c1 | inactive: -11.9%
O=[N+]([O-])c1ccc(OP2(=O)COCCO2)cc1 (centres undefined) | inactive: 1.03%
COc1ccc(OP(C)(=O)Nc2ccc(SC(F)(F)F)cc2)cc1 (centres undefined) | inactive: -9.69%
CCOC(=O)c1ccc(NP(C)(=O)Oc2ccc(F)cc2)cc1 (centres undefined) | inactive: -6.31%
CCN(CC)CCCOC(=O)C(O)(c1ccccc1)C1CCCCC1 (centres undefined) | inactive: 4.49%
CCCCCOc1ccc(NP(C)(=O)Oc2ccc(Cl)cc2Cl)cc1 (centres undefined) | inactive: 17.8%
O=[N+]([O-])c1cc([N+](=O)[O-])c(OC2CCCCC2O)c([N+](=O)[O-])c1 (centres undefined) | inactive: -20.4%
CP(=O)(Nc1ccccc1)Oc1ccc(F)cc1 (centres undefined) | inactive: -12.6%
CC(C)c1ccc(OP(C)(=O)Nc2ccc(SC(F)(F)F)cc2)cc1 (centres undefined) | inactive: -6.66%
CP(=O)(Nc1ccccc1F)Oc1ccccc1 (centres undefined) | inactive: -1.59%
O=C(OCCN1CCN(CCOCc2ccccc2)CC1)C(O)(c1ccccc1)c1ccccc1 | inactive: 2.99%
O=C(OC1CN2CCC1CC2)c1ccc([N+](=O)[O-])cc1 (centres undefined) | inactive: -14.4%
COc1ccccc1OP(C)(=O)Nc1ccc(Br)cc1 (centres undefined) | inactive: 3.25%
CN(C)CCOC(=O)C(O)(c1ccccc1)C1CCCC1 (centres undefined) | inactive: -13.1%
COc1ccc(OP(C)(=O)Nc2ccccn2)cc1 (centres undefined) | inactive: -7.88%
O=[N+]([O-])c1cc([N+](=O)[O-])c(Nc2ccccn2)c([N+](=O)[O-])c1 | inactive: 1.26%
Cc1c(NP(C)(=O)Oc2ccc(C(C)C)cc2)c(=O)n(-c2ccccc2)n1C (centres undefined) | inactive: -12%

SMILES | inhibition
CCc1ccc(OP(C)(=O)O)cc1 | inactive: -4.04%
COc1ccccc1OP(C)(=O)Nc1ccc(C)cc1C (centres undefined) | inactive: -7.84%
CP(=O)(Nc1ccccn1)Oc1ccccc1 (centres undefined) | inactive: -6.65%
Cc1cc(C)cc(OP(C)(=O)Nc2cccc(C(F)(F)F)c2)c1 (centres undefined) | inactive: -5.27%
COc1ccc(OP(C)(=O)Nc2ccccc2Br)cc1 (centres undefined) | inactive: -2.46%
COc1ccccc1OP(C)(=O)Nc1ccc(C)c(C)c1 (centres undefined) | inactive: -11.6%
Cc1nc2ccc3ccccc3c2o1.O=[N+]([O-])c1cc([N+](=O)[O-])c(O)c([N+](=O)[O-])c1 | inactive: -13.1%
CP(=O)(OCCOc1ccccc1)OCCOc1ccccc1 | inactive: -1.52%
CP(=O)(Nc1ccc(Cl)cc1Cl)Oc1ccccc1 (centres undefined) | inactive: -11.8%
CP(=O)(OC12CC3CC(CC(C3)C1)C2)OC12CC3CC(CC(C3)C1)C2 | inactive: 3.44%
CCOC(=O)c1ccc(NP(C)(=O)Oc2ccc(Cl)cc2)cc1 (centres undefined) | inactive: -2.46%
COc1ccc(OP(C)(=O)Nc2ccc(Br)cc2)cc1 (centres undefined) | inactive: 0.59%
CCN(CC)CC(O)COC(=O)C(O)(c1ccccc1)C1CCCCC1 (centres undefined) | inactive: -2.33%
CCc1ccc(OP(C)(=O)Nc2cccnc2)cc1 (centres undefined) | inactive: -6.31%
CP(=O)(Oc1ccccc1)N1CCOC1=O (centres undefined) | inactive: 7.57%
O=C(OCCCN1CCCC1)C(O)(c1ccccc1)C1CCCCC1 (centres undefined) | inactive: 3.51%
COc1ccccc1OP(C)(=O)Nc1c(C)n(C)n(-c2ccccc2)c1=O (centres undefined) | inactive: -12.1%
CP(=O)(Nc1ccc(Cl)cc1)Oc1ccc(F)cc1 (centres undefined) | inactive: -1.77%
CC(C)(C)c1ccc(OP(C)(=O)O)cc1 | inactive: -3.04%
COc1ccccc1OP(C)(=O)Nc1ccccc1Br (centres undefined) | inactive: 3.62%
CN(C)C(=O)c1c([N+](=O)[O-])cc([N+](=O)[O-])cc1[N+](=O)[O-] | inactive: -5.59%
